Only a part is listed here, and it is no random draw. The source made the active and inactive calls. Rule as the data show it: active = fluorescence above about 89; inactive = the rest.

The nature of this assay: compound fluorescence on glutathione beads, profiling panel, artefact control, biophysical, 488/530 nm, flow cytometry (AID 1776).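 Also: glutathione beads carrying GST-tagged Bcl family fusion proteins plus one bare bead set; values are compound well signal with DMSO vehicle wells as background.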 To be noted: GSH beads flow cytometry, compound fluorescence 488/530 nm; at 10 µM; stronger effect = higher value.
`CC(C)c1ccc(OP(C)(=O)Nc2ccc(SC(F)(F)F)cc2)cc1` (centres undefined): the fluorescence (KMESF) was inactive: 18.
With `CP(=O)(Nc1ccccc1F)Oc1ccccc1` (centres undefined), the fluorescence (KMESF) was inactive: 35.
On to `O=C(OCCN1CCN(CCOCc2ccccc2)CC1)C(O)(c1ccccc1)c1ccccc1`, for which the fluorescence (KMESF) was inactive: 10.
Take `COc1ccc(OP(C)(=O)Nc2ccc(SC(F)(F)F)cc2)cc1` (centres undefined): the fluorescence (KMESF) was inactive: 13.
As to `CCOC(=O)c1ccc(NP(C)(=O)Oc2ccc(F)cc2)cc1` (centres undefined), the fluorescence (KMESF) is inactive: 24.
`CCN(CC)CCCOC(=O)C(O)(c1ccccc1)C1CCCCC1` (centres undefined): the fluorescence (KMESF) is inactive: 19.
With `CP(=O)(Nc1ccccc1)Oc1ccc(F)cc1` (centres undefined) the figure was inactive: 18; with `COc1ccc(OP(C)(=O)Nc2cccc(Br)c2)cc1` (centres undefined), inactive: 26.
Turning to `COc1ccc(NP(C)(=O)Oc2ccccc2OC)cc1` (centres undefined), the fluorescence (KMESF) is inactive: 12.
For the compound `CN(C)CCOC(=O)C(O)(c1ccccc1)C1CCCCC1` (centres undefined), the fluorescence (KMESF) is inactive: 12.
With `O=[N+]([O-])c1cc([N+](=O)[O-])c(NCC2CCS(=O)(=O)C2)c([N+](=O)[O-])c1` (centres undefined) the figure was inactive: 12; with `CCOP(C)(=S)SCC(=O)NC(C)(CC)C(=O)O` (centres undefined), inactive: 25.
For the compound `CP(=O)(Nc1ccc2c(c1)OCCO2)Oc1ccccc1` (centres undefined), the fluorescence (KMESF) is inactive: 22.
On to `Cc1ccccc1NP(C)(=O)Nc1ccccc1C`, for which the fluorescence (KMESF) is inactive: 24.
With `COc1ccc(OP(C)(=O)Nc2ccc(Br)cc2)cc1` (centres undefined) the figure was inactive: 6; with `CCN(CC)CC(O)COC(=O)C(O)(c1ccccc1)C1CCCCC1` (centres undefined), inactive: 7; with `CCc1ccc(OP(C)(=O)Nc2cccnc2)cc1` (centres undefined), inactive: 13.
Consider `CP(=O)(Oc1ccccc1)N1CCOC1=O` (centres undefined), for which the fluorescence (KMESF) is inactive: 6.
For the compound `CP(=O)(Nc1ccc(Cl)cc1)Oc1ccc(F)cc1` (centres undefined), the fluorescence (KMESF) was inactive: 17.
In the case of `CC(C)(C)c1ccc(OP(C)(=O)O)cc1`, the fluorescence (KMESF) is inactive: 13.
With `COc1ccccc1OP(C)(=O)Nc1ccccc1Br` (centres undefined), the fluorescence (KMESF) was inactive: 9.
Turning to `CN(C)C(=O)c1c([N+](=O)[O-])cc([N+](=O)[O-])cc1[N+](=O)[O-]`, the fluorescence (KMESF) was inactive: 13.
For `CP(=O)(OC12CC3CC(CC(C3)C1)C2)OC12CC3CC(CC(C3)C1)C2`, the fluorescence (KMESF) is inactive: 25.
For `CCOC(=O)c1ccc(NP(C)(=O)Oc2ccc(Cl)cc2)cc1` (centres undefined), the fluorescence (KMESF) was inactive: 10.
With `Cc1cc(C)cc(OP(C)(=O)Nc2cccc(C(F)(F)F)c2)c1` (centres undefined), the fluorescence (KMESF) is inactive: 11.
In the case of `COc1ccc(OP(C)(=O)Nc2ccccc2Br)cc1` (centres undefined), the fluorescence (KMESF) is inactive: 19.
The value for `COc1ccccc1OP(C)(=O)Nc1ccc(C)c(C)c1` (centres undefined) was inactive: 5; that for `Cc1nc2ccc3ccccc3c2o1.O=[N+]([O-])c1cc([N+](=O)[O-])c(O)c([N+](=O)[O-])c1` was inactive: 9; that for `CP(=O)(OCCOc1ccccc1)OCCOc1ccccc1` was inactive: 11.
Consider `CP(=O)(Nc1ccc(Cl)cc1Cl)Oc1ccccc1` (centres undefined), for which the fluorescence (KMESF) was inactive: 16.
In the case of `CN(C)CCOC(=O)C(O)(c1ccccc1)C1CCCC1` (centres undefined), the fluorescence (KMESF) was inactive: 27.
In the case of `COc1ccc(OP(C)(=O)Nc2ccccn2)cc1` (centres undefined), the fluorescence (KMESF) is inactive: 52.
Take `O=[N+]([O-])c1cc([N+](=O)[O-])c(Nc2ccccn2)c([N+](=O)[O-])c1`: the fluorescence (KMESF) is inactive: 52.
For the compound `Cc1c(NP(C)(=O)Oc2ccc(C(C)C)cc2)c(=O)n(-c2ccccc2)n1C` (centres undefined), the fluorescence (KMESF) was inactive: 28.
The value for `CCc1ccc(OP(C)(=O)O)cc1` was inactive: 22; that for `COc1ccccc1OP(C)(=O)Nc1ccc(C)cc1C` (centres undefined) was inactive: 9.
The value for `CP(=O)(Nc1ccccn1)Oc1ccccc1` (centres undefined) was inactive: 11.
For `CCN(CC)CCCOC(=O)C(O)(c1ccccc1)c1ccccc1`, the fluorescence (KMESF) was inactive: 11.
As to `Cc1cccc(C)c1OP(C)(N)=O` (centres undefined), the fluorescence (KMESF) was inactive: 10.
With `CC(C)(C)c1ccc(OP(C)(=O)Nc2ccc(SC(F)(F)F)cc2)cc1` (centres undefined) the figure was inactive: 5; with `O=[N+]([O-])c1ccc2c(c1)C=Nc1ccccc1O2`, inactive: 15.
For the compound `CCOC(=O)c1ccc(NP(C)(=O)Oc2ccccc2)cc1` (centres undefined), the fluorescence (KMESF) was inactive: 10.
Regarding `Cc1ccc(NP(C)(=O)Oc2ccccc2)c(C)c1` (centres undefined), the fluorescence (KMESF) is inactive: 46.
For the compound `COc1ccccc1OP(C)(=O)Nc1ccc(C)cc1` (centres undefined), the fluorescence (KMESF) is inactive: 21.
In the case of `COc1ccc(OP(C)(=O)Nc2cccc(F)c2)cc1` (centres undefined), the fluorescence (KMESF) was inactive: 25.
The value for `COc1ccccc1OP(C)(=O)Nc1cc(Cl)ccc1C` (centres undefined) was inactive: 11; that for `Cc1cc(C)cc(OP(C)(N)=O)c1` (centres undefined) was inactive: 15; that for `CP(=S)(Nn1cnnc1)Oc1ccccc1` (centres undefined) was inactive: 51.
The value for `COc1ccccc1OP(C)(=O)Nc1ccccc1` (centres undefined) was inactive: 20; that for `CP(=O)(Nc1ccccc1Br)Oc1ccccc1` (centres undefined) was inactive: 12.
For `CP(=O)(Oc1ccccc1)OC(c1ccccc1)C(F)(F)F` (centres undefined), the fluorescence (KMESF) was inactive: 16.
Regarding `Cc1cccc(C)c1OP(C)(=O)Nc1ccc(SC(F)(F)F)cc1` (centres undefined), the fluorescence (KMESF) is inactive: 15.
In the case of `Cc1cc(C)cc(OP(C)(=O)Nc2ccc(SC(F)(F)F)cc2)c1` (centres undefined), the fluorescence (KMESF) was inactive: 17.
In the case of `CP(=O)(NC(=O)Nc1ccccc1)Oc1ccccc1` (centres undefined), the fluorescence (KMESF) is inactive: 5.
The value for `CCOP(C)(=S)SCC(=O)NC(C)C(=O)O` (centres undefined) was inactive: 15; that for `CCOC(=O)c1ccc(NP(C)(=O)Oc2ccc(OC)cc2)cc1` (centres undefined) was inactive: 17; that for `CP(=O)(Nc1ccccn1)Oc1ccc(Cl)cc1` (centres undefined) was inactive: 16.
`O=[N+]([O-])c1cc([N+](=O)[O-])c(-n2nnc3ccccc32)c([N+](=O)[O-])c1`: the fluorescence (KMESF) is inactive: 17.
On to `Cc1nc2ccc3ccccc3c2s1.O=[N+]([O-])c1cc([N+](=O)[O-])c(O)c([N+](=O)[O-])c1`, for which the fluorescence (KMESF) was inactive: 35.
Regarding `CN1CCCCC1COC(=O)C1(O)c2ccccc2CCc2ccccc21` (centres undefined), the fluorescence (KMESF) was inactive: 16.
For `COc1ccccc1OP(C)(=O)Nc1c(C)cccc1C` (centres undefined), the fluorescence (KMESF) is inactive: 32.
For `CP(=O)(Nc1ccc(SC(F)(F)F)cc1)Oc1ccccc1` (centres undefined), the fluorescence (KMESF) is inactive: 10.
Take `CCCOc1ccc(NP(C)(=O)Oc2ccc(Cl)cc2)cc1` (centres undefined): the fluorescence (KMESF) is inactive: 12.
`CC1=NCCc2c1[nH]c1ccccc21.O=[N+]([O-])c1cc([N+](=O)[O-])c(O)c([N+](=O)[O-])c1`: the fluorescence (KMESF) is inactive: 13.
Take `Cc1cc(C)cc(OP(C)(=O)Nc2ccc(C)cc2C)c1` (centres undefined): the fluorescence (KMESF) was inactive: 52.
In the case of `CCOC(=O)c1ccc(NP(C)(=O)Oc2cc(C)cc(C)c2)cc1` (centres undefined), the fluorescence (KMESF) was inactive: 22.
`CP(=O)(Nc1cccc(Br)c1)Oc1ccccc1` (centres undefined): the fluorescence (KMESF) is inactive: 13.
For `Cc1cc(C)cc(OP(C)(=O)Nc2ccccn2)c1` (centres undefined), the fluorescence (KMESF) was inactive: 33.
Turning to `Cc1ccc(C)c(NP(C)(=O)Oc2ccccc2)c1` (centres undefined), the fluorescence (KMESF) is inactive: 32.

The values are drawn from PubChem BioAssay AID1776 (NMMLSC, 2009).
